Yeast mating assay B: variants of the scFv Ab-14

Data: MIT Lincoln Laboratory AlphaSeq set, Li et al. 2023, doi:10.1038/s41467-023-39022-2, as distributed in FLAb.

Target peptide (SARS-CoV-2 spike, HR2 region): PDVDLGDISGINAS

Parent: Ab-14, a human scFv built as VH, a (GGGGS)3 linker, VL. Only the CDRs of the light chain vary.
VH: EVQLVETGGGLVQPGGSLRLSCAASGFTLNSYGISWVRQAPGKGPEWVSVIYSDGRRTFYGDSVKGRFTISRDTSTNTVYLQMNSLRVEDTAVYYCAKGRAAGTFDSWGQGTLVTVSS
VL: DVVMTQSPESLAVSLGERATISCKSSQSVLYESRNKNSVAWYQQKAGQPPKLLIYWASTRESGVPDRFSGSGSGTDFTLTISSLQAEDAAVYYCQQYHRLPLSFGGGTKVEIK

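The starting antibody came from a phage panning campaign against this peptide. Designed CDR sequences, proposed from the first random library and measured here. Their group label is 14L_GP_Gibbs (GP: Gaussian process model; Gibbs: Gibbs sampling; a sequence that several methods proposed may carry one label only). Affinity was read by AlphaSeq, a pooled yeast mating assay with surface-displayed partners. The frequency of each diploid, read from paired DNA barcodes, reflects how well the two displayed proteins bind. Each replicate has its own calibration line, from reference interactions of the BCL2 family. The assay was run in six technical replicates.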

Changes read parent residue, position, new residue, counted from the first residue of the VL shown.
Values are log10 of the apparent Kd in nM; lower means stronger binding.
As a blank, each scFv also met three strains without target: over all light chain designs, 4% of these pairings were detected, typically at 2.64 and seldom below 1.59. For each scFv, signals with the empty controls are counted beside the result, with their mean in brackets.
A sequence measured in both rounds can read differently, since the two assays cover different ranges.
In the paper, a design with two or fewer of six values counts as a poor binder.
The parent sequence was in this pool as ten entries: three were never detected, three once, and four in most replicates, with averages from 0.34 to 2.37.

| # | changes | replicates, log10 nM | empty controls |
|---|---|---|---|
| 1 | S25V+Q27S+V29F+S33D+W56Q+T59Q | 0.03 -0.10 0.00 0.08 -0.15 0.02 | 0 of 18 |
| 2 | S25L+V29F+S33D+K36W+S38N+W56A+T59K+Q96A | 0.66 0.47 0.59 0.38 0.35 0.66 | 1 of 18 (2.73) |
| 3 | S25F+S26Q+V29Q+W56N+T59C+E61M | 0.52 0.16 0.31 0.04 0.20 0.46 | 1 of 18 (2.37) |
| 4 | Q27G+L30M+Y31M+E32L+K36V+W56E+S58T | 0.37 0.39 0.44 0.08 0.27 0.61 | 0 of 18 |
| 5 | S25W+Q27I+V29D+Y31G+E32G+S33D+W56H+T59C+S62Q | 1.07 1.41 1.19 1.11 1.36 1.82 | 0 of 18 |
| 6 | S25V+V29K+N35Q+W56N+T59Q+S62L | 0.38 0.55 0.30 0.26 0.43 0.34 | 1 of 18 (3.64) |
| 7 | S25F+V29D+S33D+R34G+W56N+E61C | 0.19 -0.09 -0.02 0.06 0.01 0.23 | 1 of 18 (2.00) |
| 8 | S25V+Q27P+V29W+L30W+N37A+S38N+W56H+S103H | 0.79 0.28 0.24 0.43 0.43 0.36 | 1 of 18 (2.30) |
| 9 | S26M+V29E+Y31D+S33N+K36D+W56S+E61L | 0.15 0.00 -0.19 -0.15 0.23 -0.05 | 0 of 18 |
| 10 | S25F+V29N+L30P+S33Q+W56E+T59Q+S62E | 0.16 -0.01 0.03 -0.16 -0.05 0.18 | 1 of 18 (2.58) |
| 11 | S25L+V29A+L30P+S33D+N35C+K36F+S38N+W56H+T59Q | 0.92 0.67 0.71 1.04 0.42 1.30 | 0 of 18 |
| 12 | S25L+Q27M+S28L+Y31M+K36H+W56S+S58N | 0.11 0.07 -0.05 0.25 0.31 0.15 | 0 of 18 |
| 13 | S25L+S26Q+Y31M+E32G+W56E+E61L+S62V+Q96A | 0.64 0.22 0.22 0.34 0.38 0.84 | 1 of 18 (2.71) |
| 14 | S25F+S26M+V29M+K36Q+S38N+W56D+E61M | 0.18 -0.23 -0.25 -0.27 -0.42 -0.15 | 0 of 18 |
| 15 | S25L+S26D+V29D+Y31M+K36W+W56Q+S62I | -0.18 0.12 -0.29 -0.66 -0.15 -0.02 | 1 of 18 (2.18) |
| 16 | S25F+S26E+S28L+V29W+L30G+Y31Q+S33Q+W56N+T59Q+S62D | -0.05 -0.04 -0.16 -0.37 -0.30 -0.08 | 3 of 18 (3.19) |
| 17 | S25M+Y31M+E32G+S33G+K36D+W56M+E61C | 0.44 1.01 1.00 0.98 0.79 1.03 | 0 of 18 |
| 18 | S25V+V29M+S38N+W56E+S62Q+Q96S | -0.32 -0.50 -0.50 -0.62 -0.46 -0.33 | 0 of 18 |
| 19 | S25M+Q27S+V29W+Y31M+S33E+W56Q+T59Q+S62R | -0.39 -0.49 -0.69 -0.73 -0.51 -0.55 | 0 of 18 |
| 20 | S25A+S26Q+V29N+L30E+N37W+W56N+S62D | -0.06 -0.42 -0.21 -0.13 -0.12 -0.09 | 1 of 18 (2.30) |
| 21 | S25V+S26P+V29N+S33A+K36A+W56N+E61L | 0.47 1.78 0.19 -0.17 0.34 0.45 | 0 of 18 |
| 22 | S25W+Q27K+S28M+L30M+Y31E+E32G+W56E+T59Q+S62E | 0.10 0.22 0.38 0.20 0.05 0.36 | 0 of 18 |
| 23 | S25I+S28A+V29Y+K36C+W56Q+S58N+T59Y | 0.24 0.52 0.22 0.45 0.28 0.43 | 0 of 18 |
| 24 | S26Q+Q27I+V29P+L30G+S33Q+W56E+E61C+S62D | 0.70 2.70 1.12 1.84 1.38 3.94 | 0 of 18 |
| 25 | S25L+S26Q+W56Q+E61S+S62D | -0.22 -0.17 -0.27 -0.18 -0.20 -0.03 | 1 of 18 (2.18) |
| 26 | S25M+Q27P+E32Q+S33D+K36S+S38A+W56Q+T59Q | 0.58 0.68 0.49 0.82 0.75 0.86 | 2 of 18 (2.87) |
| 27 | S25L+S26A+Q27Y+V29E+L30P+W56D+E61S | 0.62 0.40 0.29 0.35 0.36 0.44 | 0 of 18 |
| 28 | S25A+S26Q+V29D+W56S+E61S+S62Q+S103Q | 0.28 0.43 0.39 0.20 0.56 0.37 | 0 of 18 |
| 29 | S25L+Q27A+S33K+W56Q+T59Q+E61C | 0.69 0.40 0.41 0.37 0.13 0.13 | 2 of 18 (2.03) |
| 30 | S25L+L30E+N35D+W56D+S58Q+E61L | -0.03 -0.31 -0.10 0.03 -0.42 -0.24 | 0 of 18 |
| 31 | S25L+V29W+E32L+K36A+W56N+T59Q+S62E | 0.16 0.07 -0.07 0.01 0.13 0.25 | 2 of 18 (2.62) |
| 32 | Q27G+L30Q+Y31G+S33D+K36S+W56H+T59Q | 0.40 0.26 0.27 -0.01 0.26 0.37 | 0 of 18 |
| 33 | S25I+S26A+V29Y+S33D+W56N+E61L | 0.08 -0.06 0.08 0.08 0.30 -0.03 | 0 of 18 |
| 34 | S25L+S26E+Q27M+V29M+L30P+N35M+W56H+T59V | -0.11 0.12 0.11 -0.06 -0.14 0.09 | 1 of 18 (0.88) |